Experiments:
[1] = system: MRI-H187 melanoma tumor xenografts; test: Net tumor volume in tumor xenografts; assay type: in vivo, female athymic mice; conditions: MRI-H187, DAY 41; Aplidine 50 μg/kg, DTIC 40 mg/kg, Carboplatin 25 mg/kg, i.p.
Description: (§1) Athymic nude female mice were received from Harlan Sprague Dawley, Madison, Wis. at 4-5 weeks of age. Mice were acclimated to the laboratory for at least one week prior to implantation of tumor. Animals were housed in static cages with food and water allowed ad libitum. Experimental animals were implanted with either tumor fragments derived from transplantation established human tumors or with cells obtain directly from in vitro culture. Tumors were implanted subcutaneously on the right flank on Day 0.
(§2) Tumor size measurements were recorded twice weekly beginning on day 4 or 5 using vernier calipers. The formula to calculate volume for a prolate ellipsoid was used to estimate tumor volume from 2-dimensional tumor measurements: tumor volume (mm^3)=(length×width^2)÷2. Assuming unit density, volume was converted to weight (i.e., 1 mm^3=1 mg). […] Treatments were initiated and administered on an individual body weight basis. A dose range finding study was performed on each tumor model to determine the appropriate dose level of each compound used in the combination studies.

[2] = system: LOX-IMVI melanoma tumor xenografts; test: Net tumor volume in tumor xenografts; assay type: in vivo, female athymic mice; conditions: DAY 6, Aplidine 50 μg/kg, DTIC 30 mg/kg, Carboplatin 25 mg/kg, i.p.
Description: as §1, §2

## CN(C)/N=N/c1[nH]cnc1C(N)=O [DTIC, dacarbazine]
[1]
  Net Tumor Volume ± S.E.M.: 1182 ± 324 mg
[2]
  Net Tumor Volume ± S.E.M.: 105 ± 5 mg
